Measurements: ChEMBL document CHEMBL1145995, “Tricyclic benzimidazoles as potent poly(ADP-ribose) polymerase-1 inhibitors” (J Med Chem, 2003)

Columns and labels:
[1] = tested on: A549; experiment: Percent ADP-ribose polymer formation at 25 uM compound concentration in A549 cells; conditions: Homo sapiens
[2] = tested on: A549; experiment: Effect on NAD+ depletion (% remaining versus vehicle control) 25 uM compound concentration in A549 cells; conditions: Homo sapiens

Structure (SMILES): CN(N=O)C(=N)N[N+](=O)[O-]
- Formation [1]: 100%
- Remaining [2]: 30%
